The values that follow come from article PMC5224920, “Assessing the mechanism and therapeutic potential of modulators of the human Mediator complex-associated protein kinases” (eLife, 2016).

Chains of the proteins cited; added tags and fusions are not shown.
UniProt P49336, whole entry: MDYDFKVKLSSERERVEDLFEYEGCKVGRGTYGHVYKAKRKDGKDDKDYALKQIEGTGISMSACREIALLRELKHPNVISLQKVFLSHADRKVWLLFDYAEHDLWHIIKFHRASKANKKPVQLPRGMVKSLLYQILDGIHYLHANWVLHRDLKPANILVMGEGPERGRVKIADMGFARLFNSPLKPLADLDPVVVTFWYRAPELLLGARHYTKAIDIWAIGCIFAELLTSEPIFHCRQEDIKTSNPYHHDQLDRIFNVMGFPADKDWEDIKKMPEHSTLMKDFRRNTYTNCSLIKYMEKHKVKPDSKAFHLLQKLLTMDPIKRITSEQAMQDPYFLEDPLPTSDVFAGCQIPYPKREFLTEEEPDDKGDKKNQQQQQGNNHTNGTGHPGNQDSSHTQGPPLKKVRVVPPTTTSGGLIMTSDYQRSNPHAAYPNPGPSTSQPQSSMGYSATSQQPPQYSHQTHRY
UniProt Q9BWU1, whole entry: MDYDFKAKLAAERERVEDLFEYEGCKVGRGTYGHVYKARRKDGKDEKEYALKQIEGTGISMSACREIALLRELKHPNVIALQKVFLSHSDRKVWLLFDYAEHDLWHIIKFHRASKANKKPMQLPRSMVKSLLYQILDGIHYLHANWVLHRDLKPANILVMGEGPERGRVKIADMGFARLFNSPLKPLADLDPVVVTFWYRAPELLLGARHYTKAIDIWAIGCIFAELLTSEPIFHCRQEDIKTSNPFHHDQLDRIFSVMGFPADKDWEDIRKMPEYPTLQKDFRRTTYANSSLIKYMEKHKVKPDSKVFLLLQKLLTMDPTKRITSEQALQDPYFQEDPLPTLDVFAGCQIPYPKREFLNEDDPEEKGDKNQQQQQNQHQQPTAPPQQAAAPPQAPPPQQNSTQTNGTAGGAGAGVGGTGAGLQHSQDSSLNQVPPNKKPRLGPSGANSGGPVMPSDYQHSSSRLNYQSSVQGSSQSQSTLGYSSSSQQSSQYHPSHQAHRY
UniProt P24863, whole entry partner: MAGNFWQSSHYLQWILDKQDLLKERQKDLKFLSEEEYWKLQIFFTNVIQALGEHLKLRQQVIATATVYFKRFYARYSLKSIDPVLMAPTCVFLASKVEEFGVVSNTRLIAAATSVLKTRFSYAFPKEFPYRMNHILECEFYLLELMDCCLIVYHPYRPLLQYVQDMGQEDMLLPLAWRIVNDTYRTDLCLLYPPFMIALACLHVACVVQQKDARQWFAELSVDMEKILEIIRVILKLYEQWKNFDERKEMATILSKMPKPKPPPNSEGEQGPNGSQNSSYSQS

pIC50: −log10 of the molar value. A value given as a limit tells only on which side of the number the result lay.

In one test the target is CDK8 (Homo sapiens, UniProt P49336). In words: CDK8 binding (Lanthascreen binding competition / reporter displacement assay). The settings on record: read-out: CDK8 IC50; mean ± s.d. (at least three) or *± range (two repeats). Background: TR-FRET usually uses a lanthanide donor and a delayed reading to cut background.
The target of another test is CDK19 (Homo sapiens, UniProt Q9BWU1). Kind of test: CDK19 reporter displacement assay. It is filed as binding. The conditions noted are these: read-out: CDK19 IC50; mean ± s.d. (at least three) or *± range (two repeats).
For another test, the system named is 7dF3. Kind of test: 7dF3 inducible WNT-pathway luciferase reporter. The conditions noted are these: read-out: 7dF3 IC50, mean ± s.d. or *± range. A general note: In a reporter assay the amount or activity of a reporter protein is the signal.
In the next test the test system is p-STAT1^SER727. Kind of test: Inhibition of STAT1 SER727 phosphorylation in cells (target-engagement biomarker). The conditions noted are these: read-out: p-STAT1^SER727 IC50; mean ± s.d. or *± range.
Test [1] concerns COLO205. Kind of test: 24 hour TCF/LEF reporter assay, COLO205. Format: cell-based, human. The settings on record: read-out: 24 hour TCF/LEF Reporter assay IC50, mean (s.d.), n = 4.
The test system of test [2] is DLD1. Kind of test: 24 hour TCF/LEF reporter assay, DLD1. Format: cell-based, human. The conditions noted are these: read-out: 24 hour TCF/LEF Reporter assay IC50, mean (s.d.), n = 4.
Test [3] has as its system LS180. Kind of test: 24 hour TCF/LEF reporter assay, LS180. The settings on record: read-out: 24 hour TCF/LEF Reporter assay IC50, mean (s.d.), n = 4. Format: cell-based, human.
For test [4], the system named is LS174T. In words: 24 hour TCF/LEF reporter assay, LS174T. Format: cell-based, human. The settings on record: read-out: 24 hour TCF/LEF Reporter assay IC50, mean (s.d.), n = 4.
Test [5] relates to RKO. In words: 24 hour reporter assay, RKO negative control (EEF1A1 promoter-reporter). Format: cell-based, human. The settings on record: read-out: 24 hour TCF/LEF Reporter assay IC50, WNT-independent EEF1A1 promoter-reporter.
In test [6] the test system is SW837. In words: 24 hour TCF/LEF reporter assay, SW837. It is filed as cell-based, human. The settings on record: read-out: 24 hour TCF/LEF Reporter assay IC50, mean (s.d.), n = 4.
Test [7] deals with SW948. In words: 14 d colony growth assay, SW948. Format: cell-based, human. The conditions noted are these: 350 nM, mean (range), n = 2.
In test [8] the test system is HT29. Kind of test: 14 d colony growth assay, HT29. It is filed as cell-based, human. The settings on record: 350 nM, mean (range), n = 2.
Test [9] has as its system LS513. Kind of test: 14 d colony growth assay, LS513. Format: cell-based, human. The conditions noted are these: 350 nM, mean (range), n = 2.
For test [10], the system named is DLD1. Kind of test: 14 d colony growth assay, DLD1. It is filed as cell-based, human. The settings on record: 350 nM, mean (range), n = 2.
Test [11] relates to LS180. Kind of test: 14 d colony growth assay, LS180. It is filed as cell-based, human. The conditions noted are these: 350 nM, mean (range), n = 2.
Test [12] concerns LS174T. In words: 14 d colony growth assay, LS174T. It is filed as cell-based, human. The conditions noted are these: 350 nM, mean (range), n = 2.
The subject of test [13] is RKO. In words: 14 d colony growth assay, RKO. Format: cell-based, human. The conditions noted are these: 350 nM, mean (range), n = 2.
Another test has as its system SW620. In words: 14 d colony growth assay, SW620. Format: cell-based, human. The settings on record: 350 nM, mean (range), n = 2.
In test [14] the test system is SW837. In words: 14 d colony growth assay, SW837. The conditions noted are these: 350 nM, mean (range), n = 2. Format: cell-based, human.
Test [15] relates to RKO. Kind of test: 96 hour proliferation GI50, RKO. The settings on record: read-out: 96 hour GI50.
Test [16] concerns HT29. In words: 96 hour proliferation GI50, HT29. The conditions noted are these: read-out: 96 hour GI50.
The test system of test [17] is DLD1. Kind of test: 96 hour proliferation GI50, DLD1. The settings on record: read-out: 96 hour GI50.
Test [18] has as its system SW948. Kind of test: 96 hour proliferation GI50, SW948. The conditions noted are these: read-out: 96 hour GI50.
Test [19] relates to LS513. In words: 96 hour proliferation GI50, LS513. The conditions noted are these: read-out: 96 hour GI50.
The test system of test [20] is LS174T. In words: 96 hour proliferation GI50, LS174T. The conditions noted are these: read-out: 96 hour GI50.
The subject of test [21] is COLO205. In words: 96 hour proliferation GI50, COLO205. The settings on record: read-out: 96 hour GI50.

Regarding `Cc1n[nH]c2ccc(-c3cncc(N[C@@H](C(N)=O)c4ccccc4)c3)cc12`, the pIC50 is 8.74 at CDK8, 8.51 at CDK19, 9.70 in the test with 7dF3 and 8.89 in the test with p-STAT1^SER727.

Consider `Brc1c(Br)c2c3c(nc(N4CCNCC4)n3CCC2)c1Br`, for which the pIC50 on CDK8 is 7.84; at CDK19, 8.09; in the test with 7dF3, 7.33; with p-STAT1^SER727 it was 6.85.

In general, GI50 refers to the concentration that inhibits growth by half. In the case of `O=C1NCCC12CCN(c1c(Cl)cncc1-c1ccc3cccnc3c1)CC2`, the pIC50 with COLO205 [1] was 6.16; in the test with DLD1 [2], 5.21; in the test with LS180 [3] it was 5.67; with LS174T [4] it was 5.59; with RKO [5], less than 4.52; with SW837 [6] it was 6.11. Besides, in the test with p-STAT1^SER727, the pIC50 was 6.48. Also, the “14 d colony growth (relative to control)” value is recorded as 1.02 (0.01) with SW948 [7]; 1.06 (0.14) in the test on HT29 [8]; 1.22 (0.06) with LS513 [9]; 0.89 (0.03) with DLD1 [10]; 1.13 (0.63) in the test with LS180 [11]; 0.93 (0.02) with LS174T [12]. In addition, the entries for the “14 d colony growth (relative to control)” value in the test with RKO [13], in the test on SW620 and with SW837 [14] were 0.94 (0.04), 0.82 (0.04) and 0.95 (0.03), respectively. The GI50 in the test on RKO [15], in the test with HT29 [16], with DLD1 [17], in the test on SW948 [18], in the test with LS513 [19] and in the test with LS174T [20] was greater than 30 µM throughout. In addition, in the test with COLO205 [21], the GI50 is greater than 30 µM.

With `Cc1n[nH]c2ncc(C(=O)N3CCC[C@@H]3c3ccc(Cl)cc3)cc12`, the pIC50 at CDK8 is 6.23; in the test on COLO205 [1] it was less than 4.52; with DLD1 [2] it was less than 4.52; in the test on LS180 [3], less than 4.52; in the test on LS174T [4] it was less than 4.52; with RKO [5] it was less than 4.52. For the same compound, the figures for the pIC50 with SW837 [6] and in the test with 7dF3 were less than 4.52 and 5.68, respectively. The “14 d colony growth (relative to control)” value in the test with SW948 [7] is recorded as 0.74 (0.03); in the test on HT29 [8] it was 1.13 (0.17); with LS513 [9], 1.23 (0.05); with DLD1 [10], 0.98 (0.01); with LS180 [11], 0.74 (0.11); with LS174T [12] it was 0.93 (0.11). In addition, the “14 d colony growth (relative to control)” value in the test on RKO [13] is 0.96 (0.10); in the test on SW620 it was 0.96 (0.10); with SW837 [14], 0.95 (0.09). For the same compound, the GI50 with RKO [15], with HT29 [16], in the test with DLD1 [17], with SW948 [18], in the test on LS513 [19] and in the test with LS174T [20] was greater than 30 µM in each case. In the test with COLO205 [21], the GI50 is greater than 30 µM.
